SMILES strings stand for the structures. Only a part is listed here, and it is no random draw. The source made the active and inactive calls.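 Rule for the calls: active = mean inhibition of at least 40% at 20 µM; inactive = the rest.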

This assay can be described thus: apoptosome-driven caspase-3 activation blockers – biochemical, fluorescence, DEVD-Rh110, 20 µM, confirmation (AID 504614).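 Note: plate controls were DMSO wells for no effect and DEVD-CHO caspase inhibitor control wells for full effect.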 Conditions: reconstituted apoptosome, caspase-3 DEVD-Rh110 fluorescence; at 20 µM; hits give high values.
Regarding `CCc1nc2c(n1)c1c(non1O)c1c2no[n+]1[O-]`, the inhibition was inactive: 7.46%.

Source of the values: PubChem BioAssay AID504614 (Sanford-Burnham Center for Chemical Genomics, 2011).
